Screening data as filed in PubChem BioAssay.
CAL PDZ FP-1: blocks peptide binding to human CAL PDZ domain; Q9HD26; purified CAL PDZ, TMR-peptide fluorescence polarization, 1 h; inhibition, % at 20 µM; 0.02% of 330,000 active;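 active = highest replicate inhibition of at least 40%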;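 also: plate controls were DMSO neutral control wells for no effect and unlabeled competitor peptide control wells for full effect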
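material = purified tagged CAL PDZ domain construct (CerCALP) | compound dosing = 20 µM, one dose | times = 1 h at RT | measured by = fluorescence polarization from S- and P-plane intensities, G-factor corrected | read-out = inhibition from polarization loss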
CDK5 inh: inhibitors of human CDK5/p35 kinase; inhibition, % at 10 µM; Q00535+Q15078; AID 488839; Recombinant CDK5/p35, ADP-Glo luminescence, 60 min; 0.01% of 330,000 active;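 active = highest replicate inhibition of at least 50% and at least 75% of replicates reaching 50%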;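 also: plate controls were DMSO neutral control for no effect and GW8510 at 10 µM for full effect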
CAL PDZ FP-2: blocks peptide binding to the human CAL PDZ domain. Q9HD26. purified CAL PDZ, TMR-peptide fluorescence polarization, 1 h. inhibition, % at 24.9 µM. 0.92% of 300,000 active;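 active = mean inhibition of at least 30% with at least half of replicates also reaching 30%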;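 also: 0% = DMSO neutral control and 100% = excess unlabeled competitor peptide PRC23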
DYRK1A inh: Dyrk1A (rat) kinase inhibition. Q63470. ADP-Glo luminescence, NFATc1 peptide. 0.43% of 310,000 active. inhibition, % at 12.5 µM; in the data active = inhibition above about 50%;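 also: plate controls were vehicle with enzyme for no effect and no enzyme for full effect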
dFosB act: mouse delta FosB homodimer activation; P13346; AID 493131; purified delta FosB, TAMRA-CDK5 oligo fluorescence polarization; percent of positive-control signal above neutral wells; 0.99% of 340,000 active; activation, % at 25 µM;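 active = mean activation above about 17%, with every replicate also reaching it, limit read from the data, passing the limit was not always enough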
Yeast UUG start: modulators of start codon recognition fidelity in yeast; AID 602363; activity score, % at 18.7 µM; S. cerevisiae UUG-firefly luciferase reporter, luminescence/redox ratio; actives 0.13% (n = 350,000);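 active = replicate mean at a twofold rise or more, about +100% in these data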;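 note: firefly luciferase made from a UUG start codon reports start codon fidelity; reporter light over untreated wells divided by growth signal over untreated wells; some hits fall short of that in this replicate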
Starred values were filed as active, the others as inactive; . = not tested or not shown. Shown are actives, neighbours in structure and some others; about 1.7% of the full set was active somewhere.

1	COC(=O)Nc1ccc(S(=O)(=O)N2CCCCC2C(=O)O)cc1 (configuration not stated)
2	CC(=O)Nc1ccc(S(=O)(=O)N2CCCCC2C(=O)O)cc1 (configuration not stated)
3	Cc1ccc(S(=O)(=O)Nc2ccc3c(c2)C(=O)N([C@H](C)CO)C[C@@H](C)[C@@H](CN(C)S(=O)(=O)c2c(C)noc2C)O3)cc1
4	CO[C@H]1CN(C)C(=O)c2cc(NS(C)(=O)=O)ccc2OC[C@H](C)N(CC2CCCCC2)C[C@H]1C
5	CC1CCC(NC(=O)c2nn(C)c3c2CSc2ccccc2-3)CC1 (configuration not stated)
6	Cn1nc(C(=O)NC2CCCCC2)c2c1-c1ccccc1SC2

Compound	1	2	3	4	5	6
CAL PDZ FP-1	-0.8	-1.8	.	.	-2.0	0.2
CDK5 inh	1.3	0.8	.	.	3.6	0.0
CAL PDZ FP-2	73.1*	-3.7	.	.	70.2*	-0.5
DYRK1A inh	1.4	14.9	.	.	4.7	2.9
dFosB act	3.8	-2.0	.	.	-2.1	-3.0
Yeast UUG start	.	.	8.9	33.8	-13.7	-18.1

7	CC(NS(=O)(=O)c1ccc(Cl)c(Cl)c1)C(=O)OCC(=O)Nc1ccc2c(c1)OCO2 (configuration not stated)
8	NC(=O)NC(CC(=O)NNC(=O)c1cccs1)c1ccc(Cl)cc1 (configuration not stated)
9	CN(C)S(=O)(=O)c1cccc(COc2ncnc3c(Cl)cc(Cl)cc23)c1
10	O=C(CCCCCn1c(=S)[nH]c2ccc(N3CCOCC3)cc2c1=O)NC1CCN(Cc2ccccc2)CC1
11	O=C(NC1CCN(Cc2ccccc2)CC1)c1ccc(Cn2c(=S)[nH]c3ccc(N4CCOCC4)cc3c2=O)cc1
12	CCN(CC)S(=O)(=O)c1ccc(N2CCOCC2)c(NS(=O)(=O)c2ccc(C)c(C)c2)c1

Compound	7	8	9	10	11	12
CAL PDZ FP-1	70.3*	0.8	-0.5	0.6	-1.9	-0.2
CDK5 inh	-0.3	-3.2	0.3	-0.5	-0.2	-0.9
CAL PDZ FP-2	-5.9	31.2*	55.9*	-3.4	-1.2	88.6*
DYRK1A inh	7.8	-1.0	7.8	.	.	-0.3
dFosB act	-7.9	1.9	-12.8	1.1	34.2*	-13.1
Yeast UUG start	-13.6	-14.0	-5.6	-5.8	-15.6	.

13	Cc1ccc(S(=O)(=O)Nc2cc3c(cc2N2CCOCC2)n(C)c(=O)c(=O)n3C)cc1
14	Cc1ccc(S(=O)(=O)Nc2ccc3c(c2)nc(CCN2CCOCC2)n3C)cc1
15	CNC(=O)C[C@H]1CC[C@H]2[C@H](COc3ccc(NC(=O)Nc4cccc(Cl)c4)cc3C(=O)N2C)O1
16	O=C(C[C@H]1C=C[C@@H](NC(=O)CN2CCOCC2)[C@@H](CO)O1)NC1CCCCC1
17	CC(=O)c1ccc(-c2ccc(C(=O)NCC(c3ccc(F)cc3)N3CCOCC3)o2)cc1 (configuration not stated)
18	Cc1ccc(C(=O)NCC(c2ccc(F)cc2)N2CCOCC2)cc1 (configuration not stated)

Compound	13	14	15	16	17	18
CAL PDZ FP-1	0.1	-2.3	.	.	-4.7	-1.9
CDK5 inh	0.3	-0.7	.	.	-2.6	-2.9
CAL PDZ FP-2	35.9*	32.2*	.	.	142.4*	-1.8
DYRK1A inh	-0.2	-10.5	.	.	12.0	-1.7
dFosB act	-3.9	-8.8	.	.	-20.5	0.9
Yeast UUG start	-8.1	.	22.9	6.1	1.7	.

Random excerpt: two compounds from above, in no set order.
13	Cc1ccc(S(=O)(=O)Nc2cc3c(cc2N2CCOCC2)n(C)c(=O)c(=O)n3C)cc1
16	O=C(C[C@H]1C=C[C@@H](NC(=O)CN2CCOCC2)[C@@H](CO)O1)NC1CCCCC1

Compound	13	16
CAL PDZ FP-1	0.1	.
CDK5 inh	0.3	.
CAL PDZ FP-2	35.9*	.
DYRK1A inh	-0.2	.
dFosB act	-3.9	.
Yeast UUG start	-8.1	6.1

Remaining list, next part:
19	COc1ccc(S(=O)(=O)N2C[C@@H](O)COC[C@@H]3O[C@H](CC(=O)N(C)C)CC[C@H]32)cc1
20	O=C(CSc1ncccc1C(=O)O)NC1CCCCCCC1
21	C=CCn1c(SCC(=O)NC2CCCCC2)nnc1-c1ccccn1
22	C/C=C/c1ccc([C@H]2[C@@H](CO)N3CCCCN(C(=O)C4CCCC4)C[C@@H]23)cc1
23	COc1ccc(NS(=O)(=O)c2ccc(/C=C/C(=O)O)cc2)cc1S(=O)(=O)N1CCOCC1
24	C[C@H](CO)N1C[C@H](C)[C@@H](CN(C)S(=O)(=O)c2ccc(Cl)cc2)Oc2c(NC(=O)c3cnccn3)cccc2C1=O
25	Cc1ccc(S(=O)(=O)N[C@H](C(=O)OCC(=O)NC(=O)C2CCCCC2)C(C)C)cc1
26	Cc1ccc(S(=O)(=O)N[C@H](C(=O)OCC(=O)NC(=O)Nc2ccc3c(c2)OCCO3)C(C)C)cc1

Compound	19	20	21	22	23	24	25	26
CAL PDZ FP-1	.	-0.7	0.2	.	0.0	.	-0.6	0.0
CDK5 inh	.	-1.3	-2.7	.	-6.2	.	-2.2	0.0
CAL PDZ FP-2	.	60.0*	122.3*	.	43.7*	.	154.5*	2.0
DYRK1A inh	.	-3.4	-6.7	.	-2.7	.	-2.6	-1.7
dFosB act	.	-1.7	-2.7	.	0.0	.	-6.6	-6.4
Yeast UUG start	-11.3	5.3	-3.1	8.7	-3.1	8.6	-3.1	.
